From US20050004163A1, “3-(diarylmethylene)-8-azabicyclo[3.2.1]octane derivatives” (priority 2000, published 2005) come the findings set out here.

Chains of the proteins cited; added tags and fusions are not shown.
UniProt P33535, whole entry: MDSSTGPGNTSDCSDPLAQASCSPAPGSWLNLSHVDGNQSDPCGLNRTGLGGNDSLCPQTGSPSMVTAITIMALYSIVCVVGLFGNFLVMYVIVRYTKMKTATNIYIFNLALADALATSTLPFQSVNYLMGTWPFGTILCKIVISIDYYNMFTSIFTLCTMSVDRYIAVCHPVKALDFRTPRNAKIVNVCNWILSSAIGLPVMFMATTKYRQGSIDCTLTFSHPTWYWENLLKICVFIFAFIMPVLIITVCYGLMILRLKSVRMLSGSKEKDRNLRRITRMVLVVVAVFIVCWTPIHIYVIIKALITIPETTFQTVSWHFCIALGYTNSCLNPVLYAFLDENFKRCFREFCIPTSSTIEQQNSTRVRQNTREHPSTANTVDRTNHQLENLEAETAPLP

The target in one assay is δ-opioid receptor (Rattus norvegicus, UniProt P33533). Kind of assay: Rat brain δ-opioid receptor binding assay ([3H]DPDPE). Conditions: read-out: DOR binding Ki, 10 nM solutions of the compounds.
For another assay, the target named is μ-opioid receptor (Rattus norvegicus, UniProt P33535). The experiment in a line: Rat brain μ-opioid receptor binding assay ([3H]DAMGO). Conditions: read-out: MOR binding Ki, 10 nM solutions of the compounds.

As to `CCNC(=O)c1ccc(C(=C2CC3CCC(C2)N3CCc2ccccc2)c2ccc(C(=O)N(C)C)cc2)cc1`, the Ki – broadly, a measure of affinity in units of concentration, obtained from inhibition or displacement – worked out at 0.96 nM at δ-opioid receptor and 35.3 nM at μ-opioid receptor.

`CCNC(=O)c1ccc(C(=C2CC3CCC(C2)N3Cc2ccoc2)c2ccc(C(=O)N(C)C)cc2)cc1`: the Ki at δ-opioid receptor came out at 4.57 nM; at μ-opioid receptor it was 6.7 nM.

For the molecule `CCNC(=O)c1ccc(C(=C2CC3CCC(C2)N3Cc2ccsc2)c2ccc(C(=O)N(C)C)cc2)cc1`, the Ki at δ-opioid receptor came to 2.62 nM; on μ-opioid receptor, 70.4 nM.

Regarding `CCNC(=O)c1ccc(C(=C2CC3CCC(C2)N3Cc2ccc3ccccc3n2)c2cccc(N)c2)cc1`, the Ki on δ-opioid receptor turned out to be 3.89 nM; on μ-opioid receptor, 34.4 nM.

Regarding `CCNC(=O)c1ccc(C(=C2CC3CCC(C2)N3Cc2ccc3ccccc3n2)c2c(C)cccc2C)cc1`, the values for the Ki at δ-opioid receptor and on μ-opioid receptor were 44.9 nM and 12.5 nM, respectively.

In the case of `CCNC(=O)c1ccc(C(=C2CC3CCC(C2)N3Cc2ccco2)c2ccc(C(=O)N(C)C)cc2)cc1`, the figures for the Ki on δ-opioid receptor and on μ-opioid receptor were 4.46 nM and 56.9 nM, respectively.

As for `CCNC(=O)c1ccc(C(=C2CC3CCC(C2)N3Cc2nccs2)c2ccc(C(=O)N(C)C)cc2)cc1`, the Ki on δ-opioid receptor was determined as 0.19 nM; at μ-opioid receptor, 254 nM.

Regarding `CCNC(=O)c1ccc(C(=C2CC3CCC(C2)N3Cc2cccs2)c2ccc(C(=O)N(C)C)cc2)cc1`, the Ki at δ-opioid receptor is 0.45 nM; at μ-opioid receptor it was 6.69 nM.

Turning to `CCNC(=O)c1ccc(C(=C2CC3CCC(C2)N3Cc2csc([N+](=O)[O-])c2)c2cccc(NC(C)=O)c2)cc1`, the Ki on δ-opioid receptor worked out at 5.92 nM; at μ-opioid receptor it was 22.7 nM.

As to `CCNC(=O)c1ccc(C(=C2CC3CCC(C2)N3CC=C(C)C)c2ccc(C(=O)N(C)C)cc2)cc1`, the Ki on δ-opioid receptor was determined as 1.98 nM; at μ-opioid receptor, 11 nM.
